In ChEMBL document CHEMBL5446079, “Affinity Biochemical Literature for EUbOPEN Chemogenomic Library” (2024):
One block for each compound: values may come before it.

Sequences of proteins named here, by UniProt entry; tags and fusion partners are left off. A change or cut given only in a name is not applied to a line headed by its entry.
UniProt P48730: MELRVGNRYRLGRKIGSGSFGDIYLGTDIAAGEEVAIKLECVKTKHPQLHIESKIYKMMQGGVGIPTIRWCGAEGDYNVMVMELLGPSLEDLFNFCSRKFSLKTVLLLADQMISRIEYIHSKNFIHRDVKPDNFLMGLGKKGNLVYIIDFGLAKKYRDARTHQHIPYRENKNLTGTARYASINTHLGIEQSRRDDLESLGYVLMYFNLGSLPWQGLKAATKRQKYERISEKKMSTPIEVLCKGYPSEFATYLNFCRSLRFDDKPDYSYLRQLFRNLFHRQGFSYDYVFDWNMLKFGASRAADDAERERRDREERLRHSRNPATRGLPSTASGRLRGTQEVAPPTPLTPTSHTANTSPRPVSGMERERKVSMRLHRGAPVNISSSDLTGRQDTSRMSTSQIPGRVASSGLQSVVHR
UniProt P49674: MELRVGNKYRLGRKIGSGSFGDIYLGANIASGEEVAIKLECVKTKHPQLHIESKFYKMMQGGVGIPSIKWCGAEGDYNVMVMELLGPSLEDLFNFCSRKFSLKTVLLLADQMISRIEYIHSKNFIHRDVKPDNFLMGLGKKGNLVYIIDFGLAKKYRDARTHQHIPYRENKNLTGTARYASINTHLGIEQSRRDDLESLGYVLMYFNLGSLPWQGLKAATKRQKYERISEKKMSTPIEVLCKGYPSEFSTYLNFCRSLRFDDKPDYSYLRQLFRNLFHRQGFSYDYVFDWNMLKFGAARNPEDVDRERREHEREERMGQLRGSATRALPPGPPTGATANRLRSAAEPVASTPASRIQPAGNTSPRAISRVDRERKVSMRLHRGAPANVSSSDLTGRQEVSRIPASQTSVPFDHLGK
UniProt Q96SB4, whole entry: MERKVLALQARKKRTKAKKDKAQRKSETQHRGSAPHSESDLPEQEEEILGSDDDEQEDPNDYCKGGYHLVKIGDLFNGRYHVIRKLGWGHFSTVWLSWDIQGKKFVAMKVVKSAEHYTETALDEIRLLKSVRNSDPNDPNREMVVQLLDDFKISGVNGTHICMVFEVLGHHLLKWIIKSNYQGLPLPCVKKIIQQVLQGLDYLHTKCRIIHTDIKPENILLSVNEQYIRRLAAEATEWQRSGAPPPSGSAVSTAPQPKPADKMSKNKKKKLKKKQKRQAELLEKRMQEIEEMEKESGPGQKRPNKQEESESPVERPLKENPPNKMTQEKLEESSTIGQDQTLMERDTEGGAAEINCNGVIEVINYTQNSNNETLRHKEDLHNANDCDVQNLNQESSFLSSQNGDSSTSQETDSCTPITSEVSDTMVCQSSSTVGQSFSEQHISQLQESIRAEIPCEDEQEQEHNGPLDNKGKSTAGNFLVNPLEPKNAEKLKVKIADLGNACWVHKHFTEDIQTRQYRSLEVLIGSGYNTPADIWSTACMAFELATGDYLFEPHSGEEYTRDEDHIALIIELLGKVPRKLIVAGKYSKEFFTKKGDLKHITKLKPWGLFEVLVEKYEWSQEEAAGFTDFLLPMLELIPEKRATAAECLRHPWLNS
UniProt P78362, whole entry: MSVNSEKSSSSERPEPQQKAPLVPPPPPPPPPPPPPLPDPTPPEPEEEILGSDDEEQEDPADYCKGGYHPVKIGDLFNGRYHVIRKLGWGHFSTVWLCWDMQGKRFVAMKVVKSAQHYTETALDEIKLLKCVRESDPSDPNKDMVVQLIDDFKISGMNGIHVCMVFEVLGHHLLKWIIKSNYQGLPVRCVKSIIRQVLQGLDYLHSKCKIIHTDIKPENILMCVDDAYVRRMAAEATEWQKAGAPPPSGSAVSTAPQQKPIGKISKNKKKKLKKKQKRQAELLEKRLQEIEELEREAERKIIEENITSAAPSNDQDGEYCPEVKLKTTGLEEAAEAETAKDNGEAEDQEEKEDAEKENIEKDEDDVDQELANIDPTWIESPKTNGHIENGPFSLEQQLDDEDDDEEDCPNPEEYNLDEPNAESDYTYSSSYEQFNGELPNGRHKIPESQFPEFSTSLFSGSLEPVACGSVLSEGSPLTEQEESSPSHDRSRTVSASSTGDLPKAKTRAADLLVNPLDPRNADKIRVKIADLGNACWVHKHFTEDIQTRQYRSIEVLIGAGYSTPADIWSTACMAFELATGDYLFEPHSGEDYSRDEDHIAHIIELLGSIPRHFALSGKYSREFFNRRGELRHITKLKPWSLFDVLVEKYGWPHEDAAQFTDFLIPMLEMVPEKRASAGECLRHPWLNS
UniProt Q96LA8, whole entry: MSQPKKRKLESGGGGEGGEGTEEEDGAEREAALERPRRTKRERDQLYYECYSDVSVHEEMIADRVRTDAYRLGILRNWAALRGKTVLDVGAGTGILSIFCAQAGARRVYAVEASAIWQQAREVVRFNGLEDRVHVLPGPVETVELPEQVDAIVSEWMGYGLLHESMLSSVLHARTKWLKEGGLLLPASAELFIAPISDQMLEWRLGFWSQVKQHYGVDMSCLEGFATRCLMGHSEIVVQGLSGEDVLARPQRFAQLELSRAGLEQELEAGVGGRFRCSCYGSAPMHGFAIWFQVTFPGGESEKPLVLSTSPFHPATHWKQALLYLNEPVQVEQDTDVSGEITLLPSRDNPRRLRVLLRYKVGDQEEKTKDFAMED

How the values were obtained:
[1] = target: Casein kinase I isoform delta (Homo sapiens, UniProt P48730)
[2] = target: Casein kinase I isoform epsilon (Homo sapiens, UniProt P49674)
[3] = target: SRSF protein kinase 1 (Homo sapiens, UniProt Q96SB4)
[4] = target: SRSF protein kinase 2 (Homo sapiens, UniProt P78362)
[5] = target: Protein arginine N-methyltransferase 6 (Homo sapiens, UniProt Q96LA8)

IC50 [1]: 8 nM
IC50 [2]: 36 nM
SMILES: CN1Cc2nccc(-c3cn(C)nc3-c3ccc(F)cc3)c2C1=O

IC50 [3]: 2.7 nM
IC50 [4]: 81 nM
SMILES: CN(c1ncccc1CNc1ccnc(-c2nc3c(F)c(Cl)ccc3[nH]2)n1)S(C)(=O)=O

IC50 [5]: > 50000 nM
SMILES: Cc1cc(C)cc([C@H]2c3cc(C)ccc3NC(=O)CN2C(=O)c2ccc(Br)s2)c1
